# System: C[S+](CC[C@H](N)C(=O)O)C[C@H]1O[C@@H](n2cnc3c(N)ncnc32)[C@H](O)[C@@H]1O
# Experiment: purified protein
# Conditions: 0.5 mM 10 (FC H), 50 mM HEPES pH 7.5, 30°C
substance,measurement,value
methyltransferase (Orf8) (Diaporthe amygdali),Km,56 ± 6.0 µM
same,kcat,0.043±0.0016 S^−1

# — PMC3411640, “Molecular Breeding of a Fungus Producing a Precursor Diterpene Suitable for Semi-Synthesis by Dissection of the Biosynthetic Machinery” (PLoS ONE, 2012)
